Laboratory results: patent publication US20230228654A1, “Blood Sampling Device and Method for PEth Measurement” (CAPITAINER AB, priority 2020, published 2023)

Experiment: Withstanding the temperature during production

## sodium metavanadate [NaVO3]
  temperature stability: withstand the temperature during production
